Data published in ChEMBL document CHEMBL4049452 (J Med Chem, 2017).

Protein sequences, listed by entry. Tags and fused reporters are not part of them.
UniProt Q61606, whole entry: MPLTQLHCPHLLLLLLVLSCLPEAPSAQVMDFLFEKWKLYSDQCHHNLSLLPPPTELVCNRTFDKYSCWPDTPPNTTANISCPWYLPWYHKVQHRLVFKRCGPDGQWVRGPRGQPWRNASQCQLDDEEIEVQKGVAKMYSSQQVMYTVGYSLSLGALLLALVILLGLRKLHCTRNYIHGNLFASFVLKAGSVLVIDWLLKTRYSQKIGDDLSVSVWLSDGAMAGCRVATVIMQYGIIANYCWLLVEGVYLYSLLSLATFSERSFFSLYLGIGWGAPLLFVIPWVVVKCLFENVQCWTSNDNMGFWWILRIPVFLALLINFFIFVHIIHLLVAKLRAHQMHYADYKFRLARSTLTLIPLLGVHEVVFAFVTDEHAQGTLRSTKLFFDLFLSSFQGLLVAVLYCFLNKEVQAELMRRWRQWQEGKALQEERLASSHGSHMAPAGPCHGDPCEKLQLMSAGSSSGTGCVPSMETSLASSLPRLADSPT
UniProt P47871, whole entry: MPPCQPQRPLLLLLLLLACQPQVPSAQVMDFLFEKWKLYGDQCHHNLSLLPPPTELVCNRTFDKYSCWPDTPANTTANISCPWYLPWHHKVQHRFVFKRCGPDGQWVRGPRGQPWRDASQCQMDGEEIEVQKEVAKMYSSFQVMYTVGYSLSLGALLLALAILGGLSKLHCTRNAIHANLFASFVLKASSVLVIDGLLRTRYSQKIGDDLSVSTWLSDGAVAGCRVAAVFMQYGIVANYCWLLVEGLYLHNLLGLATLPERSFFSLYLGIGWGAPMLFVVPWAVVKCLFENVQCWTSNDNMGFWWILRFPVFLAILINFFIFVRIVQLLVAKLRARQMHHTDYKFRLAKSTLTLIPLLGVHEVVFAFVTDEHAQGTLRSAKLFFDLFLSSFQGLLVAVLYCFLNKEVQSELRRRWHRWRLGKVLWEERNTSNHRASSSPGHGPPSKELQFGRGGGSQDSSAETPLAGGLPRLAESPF
UniProt P43220, whole entry: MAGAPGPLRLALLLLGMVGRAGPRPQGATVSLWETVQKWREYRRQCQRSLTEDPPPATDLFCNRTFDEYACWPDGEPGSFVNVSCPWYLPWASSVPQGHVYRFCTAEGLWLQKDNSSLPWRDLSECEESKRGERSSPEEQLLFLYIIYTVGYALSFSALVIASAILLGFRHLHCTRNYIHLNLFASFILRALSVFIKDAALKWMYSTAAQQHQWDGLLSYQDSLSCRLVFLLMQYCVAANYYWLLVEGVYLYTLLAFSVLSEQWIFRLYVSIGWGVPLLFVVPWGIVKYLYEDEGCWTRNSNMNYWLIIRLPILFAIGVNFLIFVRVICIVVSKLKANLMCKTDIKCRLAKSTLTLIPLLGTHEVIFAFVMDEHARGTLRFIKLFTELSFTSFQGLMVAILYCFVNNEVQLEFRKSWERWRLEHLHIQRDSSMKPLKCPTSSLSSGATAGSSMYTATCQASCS

How the values were obtained:
[1] = Tmax in C57/BL6 mouse at 1 mg/kg, sc by LC-MS/MS analysis; assay type: ADME, organism-based; details: in vivo
Summary of the method: (§1)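 Female C57/Bl6 mice given single 1 mg/kg sc dose; animals sacrificed and blood collected at 0.083, 0.25, 1, 2, 4, 8, 16 and 24 h. Plasma analysed by LC-MS/MS after protein precipitation; parameters from mean plasma concentrations by noncompartmental analysis.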

[2] = Cmax in C57/BL6 mouse at 1 mg/kg, sc by LC-MS/MS analysis; assay type: ADME, organism-based; set-up: dose 1 mg/kg, route subcutaneous; details: in vivo; summary of the method: as §1
Glucagon receptor [3] = biological target: Glucagon receptor (Mus musculus, UniProt Q61606); experiment: Agonist activity at mouse glucagon receptor expressed in HEK293 cells assessed as cAMP accumulation after 30 mins by HTRF assay; assay type: functional, cell-based
Glucagon receptor [4] = biological target: Glucagon receptor (Homo sapiens, UniProt P47871); experiment: Agonist activity at human glucagon receptor expressed in HEK293 cells assessed as cAMP accumulation after 30 mins by HTRF assay; assay type: functional, cell-based
[5] = biological target: T1, Glucagon-like peptide 1 receptor (Mus musculus, UniProt O35659); experiment: Agonist activity at mouse GLP-1 receptor expressed in HEK293 cells assessed as cAMP accumulation after 30 mins by HTRF assay; assay type: functional, cell-based
T1 sequence (O35659 whole entry): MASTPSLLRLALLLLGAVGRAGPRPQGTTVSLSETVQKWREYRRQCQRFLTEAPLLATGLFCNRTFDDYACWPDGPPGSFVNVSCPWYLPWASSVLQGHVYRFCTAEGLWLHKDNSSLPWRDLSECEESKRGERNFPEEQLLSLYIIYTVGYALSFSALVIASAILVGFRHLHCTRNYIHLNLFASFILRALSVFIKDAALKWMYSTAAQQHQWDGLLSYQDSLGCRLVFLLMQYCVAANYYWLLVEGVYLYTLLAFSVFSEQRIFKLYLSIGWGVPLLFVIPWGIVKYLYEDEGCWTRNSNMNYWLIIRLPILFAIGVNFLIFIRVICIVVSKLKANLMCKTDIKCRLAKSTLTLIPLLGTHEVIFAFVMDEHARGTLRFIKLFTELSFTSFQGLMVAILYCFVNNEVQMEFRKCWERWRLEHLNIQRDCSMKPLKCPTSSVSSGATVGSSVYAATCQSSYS

[6] = AUC in C57/BL6 mouse at 1 mg/kg, sc by LC-MS/MS analysis; assay type: ADME, organism-based; details: in vivo; summary of the method: as §1
[7] = biological target: Glucagon-like peptide 1 receptor (Homo sapiens, UniProt P43220); experiment: Agonist activity at human GLP-1 receptor expressed in HEK293 cells assessed as cAMP accumulation after 30 mins by HTRF assay; assay type: functional, cell-based
Mus musculus [8] = experiment: Antidiabetic activity in leptin receptor deficient diabetic db/db mouse assessed as reduction of HbAlc level in blood at 50 ug/kg, sc twice daily after 32 days; assay type: functional; set-up: scale not given: the % may be the effect or the level left
Summary of the method: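 Female db/db (BKS.Cg-m +/+ Leprdb/J) mice stratified by baseline blood glucose and HbA1c (n = 8/group), lean littermate controls included. Dosed sc twice daily at 50 μg/kg for 32 days versus vehicle. HbA1c measured in tail blood without anesthesia at end of study; repeated-measures one-way ANOVA with Dunnett's test, mean ± SEM.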

Mus musculus [9] = experiment: Antiobese activity in diet induced obese C57BL/6N mouse assessed as overall weight change at 50 ug/kg, sc twice daily morning at the begining of the light phase and in the evening prior lights off for 33 days (reference value: 0.2 +/- 0.7%); assay type: functional
Mus musculus [10] = experiment: Antiobese activity in diet induced obese C57BL/6N mouse assessed as body fat change at 50 ug/kg, sc twice daily morning at the begining of the light phase and in the evening prior lights off for 33 days by NMR analysis (reference value: 2.5 +/- […]); assay type: functional

Structure (SMILES) | Tmax [1] [h] | Cmax [2] [ng/mL] | EC50 (Glucagon receptor [3]) [nM] | EC50 (Glucagon receptor [4]) [pM] | EC50 [5] [pM] | AUC [6] [ng·h/mL] | EC50 [7] [pM] | Activity (Mus musculus [8]) [%] | Activity (Mus musculus [9]) [%] | Activity (Mus musculus [10]) [%]
CCCCCCCCCCCCCCCC(=O)N[C@@H](CCC(=O)NCCCC[C@H](NC(=O)[C@H](CCC(N)=O)NC(=O)[C@H](CCCCN)NC(=O)[C@H](CO)NC(=O)[C@H](CC(C)C)NC(=O)[C@H](CC(=O)O)NC(=O)[C@H](CO)NC(=O)[C@@H](NC(=O)[C@H](Cc1ccccc1)NC(=O)[C@@H](NC(=O)CNC(=O)[C@H](CCC(N)=O)NC(=O)[C@@H](CO)NC(=O)[C@@H](N)Cc1c[nH]cn1)[C@@H](C)O)[C@@H](C)O)C(=O)N[C@@H](CC(=O)O)C(=O)N[C@@H](CO)C(=O)N[C@@H](CCCNC(=N)N)C(=O)N[C@@H](CCCNC(=N)N)C(=O)N[C@@H](C)C(=O)N[C@@H](CCC(N)=O)C(=O)N[C@@H](CC(=O)O)C(=O)N[C@@H](Cc1ccccc1)C(=O)N[C@H](C(=O)N[C@@H](CCC(=O)O)C(=O)N[C@@H](Cc1c[nH]c2ccccc12)C(=O)N[C@@H](CC(C)C)C(=O)N[C@@H](CCCCN)C(=O)N[C@@H](CC(N)=O)C(=O)NCC(=O)NCC(=O)N1CCC[C@H]1C(=O)N[C@@H](CO)C(=O)N[C@@H](CO)C(=O)NCC(=O)N[C@@H](C)C(=O)N1CCC[C@H]1C(=O)N1CCC[C@H]1C(=O)N1CCC[C@H]1C(=O)N[C@@H](CO)C(N)=O)[C@@H](C)CC)C(=O)O [listing 1 of 2 here] | 1 | 1930 | 0.025 | 0.7 | 2.3 | 11000 | 3.9 |  |  | 
CCCCCCCCCCCCCCCC(=O)N[C@@H](CCC(=O)NCCCC[C@H](NC(=O)[C@H](CCC(N)=O)NC(=O)[C@H](CCCCN)NC(=O)[C@H](CO)NC(=O)[C@H](CC(C)C)NC(=O)[C@H](CC(=O)O)NC(=O)[C@H](CO)NC(=O)[C@@H](NC(=O)[C@H](Cc1ccccc1)NC(=O)[C@@H](NC(=O)CNC(=O)[C@H](CCC(N)=O)NC(=O)[C@@H](CO)NC(=O)[C@@H](N)Cc1c[nH]cn1)[C@@H](C)O)[C@@H](C)O)C(=O)N[C@@H](CC(=O)O)C(=O)N[C@@H](CO)C(=O)N[C@@H](CCCNC(=N)N)C(=O)N[C@@H](CCCNC(=N)N)C(=O)N[C@@H](C)C(=O)N[C@@H](CCC(N)=O)C(=O)N[C@@H](CC(=O)O)C(=O)N[C@@H](Cc1ccccc1)C(=O)N[C@H](C(=O)N[C@@H](CCC(=O)O)C(=O)N[C@@H](Cc1c[nH]c2ccccc12)C(=O)N[C@@H](CC(C)C)C(=O)N[C@@H](CCCCN)C(=O)N[C@@H](CC(N)=O)C(=O)NCC(=O)NCC(=O)N1CCC[C@H]1C(=O)N[C@@H](CO)C(=O)N[C@@H](CO)C(=O)NCC(=O)N[C@@H](C)C(=O)N1CCC[C@H]1C(=O)N1CCC[C@H]1C(=O)N1CCC[C@H]1C(=O)N[C@@H](CO)C(N)=O)[C@@H](C)CC)C(=O)O [listing 2 of 2 here] |  |  |  |  |  |  |  | 1.5 | -29.1 | -57.3
